Data on 2 substances can be found in patent US7498406B2, “Substantially cell membrane impermeable compound and use thereof” (priority 1999, dated 2009).

A value given as a limit tells only on which side of the number the result lay.

The subject of the experiment is BAE cells. As to conditions: read-out: IC50 for viability; 24 hours, complete medium.

As a reminder, the IC50 is the midpoint of a concentration-inhibition curve. In the case of “a mixture of 4-(N-(6-(fluorescein-5-carboxamido)hexanoyl)amino)phenylarsenoxide and 4-(N-(6-(fluorescein-6-carboxamido)hexanoyl)amino)phenylarsenoxide”, the IC50 is more than 200 µM.
Turning to phenylarsenoxide, the half-inhibitory concentration (IC50) is less than 0.1 µM.
